ChEMBL document CHEMBL2074557, “Disposition of ivermectin and cyclosporin A in CF-1 mice deficient in mdr1a P-glycoprotein” (Drug Metab Dispos, 1999)

Protein sequences, listed by entry. Tags and fused reporters are not part of them.
UniProt P21447, whole entry: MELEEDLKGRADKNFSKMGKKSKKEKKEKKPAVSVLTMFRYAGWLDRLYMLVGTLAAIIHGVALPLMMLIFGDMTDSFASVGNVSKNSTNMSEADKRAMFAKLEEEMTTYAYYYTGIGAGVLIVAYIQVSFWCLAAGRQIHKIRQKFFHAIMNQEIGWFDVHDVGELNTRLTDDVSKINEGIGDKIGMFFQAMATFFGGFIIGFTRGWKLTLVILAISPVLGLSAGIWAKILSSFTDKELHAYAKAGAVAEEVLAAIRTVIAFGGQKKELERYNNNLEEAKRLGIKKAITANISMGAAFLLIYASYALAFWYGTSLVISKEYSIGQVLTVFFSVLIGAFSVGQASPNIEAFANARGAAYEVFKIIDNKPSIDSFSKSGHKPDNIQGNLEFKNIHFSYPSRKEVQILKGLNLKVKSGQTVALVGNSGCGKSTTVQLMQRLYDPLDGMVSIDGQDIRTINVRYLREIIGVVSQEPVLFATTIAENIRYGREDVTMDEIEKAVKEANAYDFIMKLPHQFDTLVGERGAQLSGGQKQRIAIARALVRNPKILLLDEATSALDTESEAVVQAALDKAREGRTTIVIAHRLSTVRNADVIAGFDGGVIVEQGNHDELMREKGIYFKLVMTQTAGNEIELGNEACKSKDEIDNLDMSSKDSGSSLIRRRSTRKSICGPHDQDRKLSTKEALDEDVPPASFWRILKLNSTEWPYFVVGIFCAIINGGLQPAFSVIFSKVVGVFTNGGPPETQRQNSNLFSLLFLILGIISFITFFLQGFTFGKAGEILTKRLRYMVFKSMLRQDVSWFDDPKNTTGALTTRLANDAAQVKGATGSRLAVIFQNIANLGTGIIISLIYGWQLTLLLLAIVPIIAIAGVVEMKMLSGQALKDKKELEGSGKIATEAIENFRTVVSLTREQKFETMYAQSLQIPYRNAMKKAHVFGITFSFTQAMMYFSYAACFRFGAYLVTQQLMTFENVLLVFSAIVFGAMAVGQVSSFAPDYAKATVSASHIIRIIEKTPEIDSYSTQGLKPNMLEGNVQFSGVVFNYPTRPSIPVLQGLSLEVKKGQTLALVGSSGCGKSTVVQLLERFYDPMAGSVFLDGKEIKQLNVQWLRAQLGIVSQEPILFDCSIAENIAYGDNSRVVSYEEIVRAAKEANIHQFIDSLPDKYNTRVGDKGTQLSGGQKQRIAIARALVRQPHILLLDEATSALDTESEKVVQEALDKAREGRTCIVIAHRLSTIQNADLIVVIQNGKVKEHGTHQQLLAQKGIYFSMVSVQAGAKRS

Target: ATP-dependent translocase ABCB1 (Mus musculus, UniProt P21447)
Experiment: TP_TRANSPORTER: increase in brain concentration in PGP(-/-) mouse
Assay type: functional, organism-based
Conditions: in vivo

## IVERMECTIN
  Activity: substrate [+]
